This is an account of results in patent publication US20190269784A1, “Selective Inhibitors of the Polo-Like Kinase 1 Polo-Box Domain” (UNIVERSITY OF SOUTH CAROLINA, priority 2018, published 2019).

By UniProt entry, the sequences of proteins in these tests, tags left out. Residues count along the entry.
UniProt P53350, 367-603 limits assumed: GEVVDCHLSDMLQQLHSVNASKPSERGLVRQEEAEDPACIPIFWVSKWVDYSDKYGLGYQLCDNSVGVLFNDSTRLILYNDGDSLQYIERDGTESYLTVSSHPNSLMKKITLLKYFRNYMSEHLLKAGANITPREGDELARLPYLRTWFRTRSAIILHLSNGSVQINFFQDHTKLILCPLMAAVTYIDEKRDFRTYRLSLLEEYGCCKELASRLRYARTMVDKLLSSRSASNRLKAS

SMILES strings stand for the structures. Square brackets hold non-standard residues; d marks the D form. Peptide text beside a SMILES is read from it. pT = C[C@@H](OP(=O)(O)O)[C@H](N)C(=O)O

The target in this experiment is PLK1 PBD (Homo sapiens, UniProt P53350). Briefly: Fluorescence polarization competitive binding assay, PLK1 PBD. How it is done:
According to the assay, binding of a fluorescent tracer peptide to a protein increased polarization of the emitted fluorescence. […] The ability of test molecules to bind to the PBD was quantitated by a reduction in mP values that occurred as the tracer was displaced from the PBD, and plotted to calculate as an IC50 value.
The affinities of the peptides for PLK1 and PLK3 were measured by plotting the loss of polarization against increasing concentration of competitor peptide through use of an optimized assay and selectivity determination.
(Polarisation of emitted light reports the rotation of a fluorescent probe.)

On to `CC(=O)N1CCC[C@H]1C(=O)N[C@@H](CC(C)C)C(=O)N[C@@H](Cc1c[nH]cn1)C(=O)N[C@@H](CO)C(=O)N[C@H](C(=O)N[C@@H](C)C(=O)O)[C@@H](C)OP(=O)(O)O` [SEQ ID NO: 6, Ac-PLHS[pT]A] (Ac-PLHS[pT]A-OH; C-terminus assumed), for which the “fold reduction of PLK1 PBD binding relative to parent compound” value is given as 7 fold. Besides, the “Selectivity Index” value ((IC50 PLK3 PBD/IC50 PLK1 PBD)×5, PLK1 over PLK3) was over 6500.
